Reference: patent US20240124398A1, “PHARMACEUTICALLY ACCEPTABLE SALTS OF PSILOCIN AND USES THEREOF” (priority 2021, published 2024)

Key:
[1] = Solubility of psilocin salts in saline
[2] = Static storage for 7 days at 40° C./75% RH (XRPD and HPLC); details: for Static Storage 40° C./75% RH: HPLC: HPLC purity after 7 days at 40° C. and 75% relative humidity; for Static Storage 40° C./75% RH: XRPD: XRPD pattern after 7 days at 40° C. and 75% relative humidity

Psilocin tartrate
pH at 5 hrs ([1]; Table 10 (updated), saline): 3.5

Psilocin succinate [Psilocin succinate SUC Pattern 2]
Static Storage 40° C./75% RH: HPLC [2]: HPLC- 98.8%
Static Storage 40° C./75% RH: XRPD [2]: SUC Pattern 3

Psilocin succinate [Psilocin succinate SUC Pattern 1]
Static Storage 40° C./75% RH: HPLC [2]: HPLC - 99.3%
Static Storage 40° C./75% RH: XRPD [2]: SUC Pattern 3

Psilocin succinate [SUC Pattern 3]
pH at 5 hrs ([1]; Table 9, saturated solution in saline, 25° C., 5 hours, listed as Psilocin succinate SUC Pattern 3): 6.5 and 6.4
pH at 5 hrs ([1]; Table 10 (updated), saline, listed as Psilocin succinate SUC Pattern 3): 6.4 and 6.5
Solubility in Saline ([1]; summary Table 4, saline, 25° C., 5 hours): >27 mg/mL

Psilocin succinate [Psilocin succinate SUC Pattern 4]
Static Storage 40° C./75% RH: HPLC [2]: HPLC - 99.4%
Static Storage 40° C./75% RH: XRPD [2]: XRPD - SUC Pattern 5 (FIG. 5)

Several values for one entry are separate records, joined by “and”; a condition that tells them apart may be missing. Identical values can stand only once.
